Assay results from US11117865B2, “Inhibitors of bromodomain-containing protein 4 (BRD4)” (Board of Regents, The University Of Texas System, priority 2016, dated 2021).

Target: BRDT (BD1) (Homo sapiens (Human), UniProt Q58F21)
Assay: Bromodomain binding affinity

COc1cc(OC)c2c(=O)cc(-c3cc(C)c(OC[C@H](O)CN4CCN(C)CC4)c(C)c3)oc2c1 [ZL0516, (R)-2-(4-(2-hydroxy-3-(4-methylpiperazin-1-yl)propoxy)-3,5-dimethylphenyl)-5,7-dimethoxy-4H-chromen-4-one]
IC50: 3.59 µM
